Consider two molecules from EP0587106B1, “Compositions containing lipophilic salts having neutron activable cations” (VECTORPHARMA INTERNATIONAL S.p.A., priority 1992, dated 1994).

The data set can be described thus: Solubility test at 24 hours, determined via complex-formation with xylenol orange.

Take `CCCCCCCCCCCC(=O)O` [Samarium laurate, samarium laurate]: the solubility (usually the concentration that dissolves in the medium under given conditions) at 24 h is, setting by setting: (pH 1.2, Solubility, pH=1.2, lipophilic salt as it is) 220 µg/mL; (pH 3, Solubility, pH=3.0, lipophilic salt as it is) 47 µg/mL; (pH 5.2, Solubility, pH=5.2, lipophilic salt as it is) below 2 µg/mL; (pH 7, Solubility, pH=7.0, lipophilic salt as it is) below 2 µg/mL.
`CCCCCCCCCCCC(=O)O` [Ytterbium laurate, ytterbium laurate]: the Solubility (usually the dissolved amount per volume that the medium holds) is, setting by setting: (pH=1.2, lipophilic salt as it is, 1440 min) 430 µg/mL; (pH=3.0, lipophilic salt as it is, 1440 min) 56 µg/mL; (pH=5.2, lipophilic salt as it is) below 2 µg/mL; (pH=7.0, lipophilic salt as it is) below 2 µg/mL.
